# scFv variants of Ab-14 (heavy chain) against a SARS-CoV-2 spike peptide

Source: Engelhart et al. 2022 (doi:10.1038/s41597-022-01779-4), MIT Lincoln Laboratory and A-Alpha Bio; data file from the FLAb repository.

Target peptide (SARS-CoV-2 spike, HR2 region): PDVDLGDISGINAS

Each scFv is VH, three GGGGS repeats, VL, as in the parent Ab-14, and differs from it in the CDRs of the heavy chain only.
VH: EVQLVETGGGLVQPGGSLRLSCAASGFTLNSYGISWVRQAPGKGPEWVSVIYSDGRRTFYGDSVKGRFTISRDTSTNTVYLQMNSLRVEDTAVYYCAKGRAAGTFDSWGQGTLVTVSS
VL: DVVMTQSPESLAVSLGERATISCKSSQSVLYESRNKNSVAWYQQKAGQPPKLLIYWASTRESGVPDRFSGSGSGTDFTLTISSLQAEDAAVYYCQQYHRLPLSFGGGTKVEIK

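The starting antibody came from a phage panning campaign against this peptide. The library (AAYL49) carries one to three amino acid substitutions per variant, with no insertions or deletions. In AlphaSeq, yeast of one mating type display the scFv and yeast of the other type display the target. Mating (16 h, 30 °C) was followed by selection of diploids and sequencing of their barcodes. A regression on co-assayed BCL2-family reference pairs converts the normalised counts of each replicate to an apparent Kd. Each pool was mated in three replicate cultures.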

Substitutions are numbered in sequence along the VH above, starting at 1 (not Kabat). Every variant below is changed at N30 of the VH (sequential numbering). The Kd shown is the geometric mean over detected replicates; a lower Kd is a better binder. An entry "nd" has no value in the source: the pair was not observed among the diploids in any replicate. This suggests poor binding but is not conclusive. Background: pairings of library AAYL49 with three empty control strains gave a value in 15% of cases (median 11 µM, 5th percentile 680 nM). Values in that range, when seen in few replicates, are hard to tell from nonspecific mating. The control count says in how many pairings with the empty strains this scFv gave a signal.

* N30S/A101W/G103V = nd (0 of 3 replicates; controls 1 of 9)
* N30D/G103P/T104I = 4.6 nM (3 of 3 replicates; controls 0 of 9)
* L29V/N30P/Y52F = 15 µM (1 of 3 replicates; controls 0 of 9)
* N30A/S35K/A101V = 440 nM (1 of 3 replicates; controls 0 of 9)
* N30M/G33Q/Y52S = 1.4 µM (1 of 3 replicates; controls 5 of 9)
* N30P/R57C/A101D = 3.6 µM (1 of 3 replicates; controls 4 of 9)
* N30R/R57K/F105K = 66 nM (3 of 3 replicates; controls 1 of 9)
* N30G/Y60R/A102W = nd (0 of 3 replicates; controls 0 of 9)
* N30F/S63L/G99R = 200 nM (2 of 3 replicates; controls 0 of 9)
* N30E/S31E/D106N = 4.4 nM (3 of 3 replicates; controls 2 of 9)
* T28D/N30R/R57L = 2.2 µM (2 of 3 replicates; controls 1 of 9)
* L29S/N30A/R56P = nd (0 of 3 replicates; controls 1 of 9)
* N30G/Y52M/S107V = 59 µM (2 of 3 replicates; controls 3 of 9)
* N30Q/R100T/F105R = nd (0 of 3 replicates; controls 1 of 9)
* N30C/V50M/S53Q = nd (0 of 3 replicates; controls 2 of 9)
* N30Q/G61Y/D106Y = 62 µM (1 of 3 replicates; controls 1 of 9)
* N30W/R57V/A102R = nd (0 of 3 replicates; controls 0 of 9)
* N30C/V50S/R56F = nd (0 of 3 replicates; controls 0 of 9)
* N30K/Y32S/G55K = 71 µM (2 of 3 replicates; controls 2 of 9)
* N30V/S31R/S53A = 44 nM (3 of 3 replicates; controls 2 of 9)
* N30L = 26 nM (3 of 3 replicates; controls 1 of 9)
* N30S/Y32R/I34M = nd (0 of 3 replicates; controls 1 of 9)
* N30C/I51N/T58M = nd (0 of 3 replicates; controls 2 of 9)
* T28S/N30P/A101R = nd (0 of 3 replicates; controls 0 of 9)
* N30Q/S35E/S107G = nd (0 of 3 replicates; controls 1 of 9)
* N30V/Y32D/G33D = nd (0 of 3 replicates; controls 3 of 9)
* N30T/Y52D/S53N = nd (0 of 3 replicates; controls 2 of 9)
* N30E/Y32I/R100P = nd (0 of 3 replicates; controls 0 of 9)
* N30Y/D54N/F59T = nd (0 of 3 replicates; controls 0 of 9)
* N30W/T58I/V64D = nd (0 of 3 replicates; controls 3 of 9)
* N30M/R56T/A101K = 7.9 µM (3 of 3 replicates; controls 3 of 9)
* N30P/S63N/R100G = 2.3 µM (3 of 3 replicates; controls 3 of 9)
* N30F/V50A/D62A = nd (0 of 3 replicates; controls 1 of 9)
* F27A/T28P/N30M = 1.7 µM (3 of 3 replicates; controls 4 of 9)
* N30A/Y52H = 330 µM (1 of 3 replicates; controls 2 of 9)
* N30M/R57C/A101W = nd (0 of 3 replicates; controls 1 of 9)
* F27R/N30W/G61D = 1.5 µM (3 of 3 replicates; controls 2 of 9)
* L29K/N30C/D54A = nd (0 of 3 replicates; controls 0 of 9)
* N30D/R56M/F105D = 1.2 nM (3 of 3 replicates; controls 1 of 9)
* N30M/S35I/T104G = nd (0 of 3 replicates; controls 2 of 9)
* F27P/N30E/Y52D = 22 µM (3 of 3 replicates; controls 2 of 9)
* N30H/T58D/D106I = nd (0 of 3 replicates; controls 0 of 9)
* L29R/N30R = nd (0 of 3 replicates; controls 1 of 9)
* T28K/N30V/G33Y = nd (0 of 3 replicates; controls 1 of 9)
* N30S/D62R/D106P = 210 µM (1 of 3 replicates; controls 0 of 9)

Top 3 of the variants detected in all replicates, tightest first:

changes	Kd (apparent)	seen in	control signals
N30D/R56M/F105D	1.2 nM	3/3	1/9
N30E/S31E/D106N	4.4 nM	3/3	2/9
N30D/G103P/T104I	4.6 nM	3/3	0/9